The target of assay [1] is T1, Nociceptin receptor (Homo sapiens, UniProt P41146). Put plainly: Agonist activity at human nociceptin opioid receptor expressed in HEK293 cell membranes by GTPgamma(35)S binding assay.
In assay [2] the target is T1, Nociceptin receptor. Put plainly: Displacement of [3H]nociceptin/orphanin FQ from recombinant human nociceptin opioid receptor expressed in HEK293 cell membranes after 60 mins. For orientation: In a radioligand displacement assay an active substance lowers the binding of a labelled ligand.
Assay [3] deals with T2, Mu-type opioid receptor (Homo sapiens, UniProt P35372). Put plainly: Displacement of [3H]DAMGO from recombinant human mu opioid receptor expressed in CHO cell membranes after 60 mins.
In assay [4] the target is T1, Nociceptin receptor. Put plainly: Displacement of [3H]nociceptin from recombinant human nociceptin opioid receptor expressed in CHO cell membranes after 60 mins by scintillation counting method.
The target of assay [5] is T2, Mu-type opioid receptor. Put plainly: Displacement of [3H]DAMGO from recombinant human mu opioid receptor expressed in CHO cell membranes after 60 mins by scintillation counting method.
Assay [6] deals with T1, Nociceptin receptor. The assay is described as follows: Antagonist activity at human nociceptin opioid receptor expressed in CHO cell membranes after 2.5 hrs by GTPgamma(35)S binding assay.
Assay [7] deals with T1, Nociceptin receptor. The assay is described as follows: Displacement of [3H]nociceptin/orphanin FQ from recombinant human nociceptin opioid receptor expressed in CHO cell membranes.
The target of assay [8] is T2, Mu-type opioid receptor. Put plainly: Displacement of [3H]DAMGO from recombinant human mu opioid receptor expressed in CHO cell membranes.
In assay [9] the target is T1, Nociceptin receptor. The assay is described as follows: Agonist activity at human nociceptin opioid receptor expressed in CHO cell membranes after 60 mins by GTPgamma(35)S binding assay.
The target in assay [10] is T1, Nociceptin receptor. The assay is described as follows: Displacement of [125I][Tyr14]nociceptin/orphanin FQ from human nociceptin opioid receptor expressed in CHO cell membranes after 1 hr by microplate scintillation counting method.

The source of these data is ChEMBL document CHEMBL4428025 (J Med Chem, 2016).

What is called EC50 is the midpoint of the concentration-response curve. By Ki is commonly meant a measure of affinity in units of concentration, obtained from inhibition or displacement. `CNC(=O)Cn1c(=O)n(C2CCN([C@H]3Cc4cccc5cccc3c45)CC2)c2ccccc21` displayed a 50% effective concentration (EC50) at Nociceptin receptor [1] of 0.3 nM. For the same compound, the inhibition constant Ki at Nociceptin receptor [2] came to 0.21 nM; at Mu-type opioid receptor [3], 35 nM.
As a reminder, the IC50 is the point on the concentration scale where inhibition reaches its midpoint. A low value points to greater potency in that assay. In the case of `CCn1c(=O)n([C@@H]2CCN(C3CCCCCCC3)C[C@H]2CO)c2ccccc21`, the inhibition constant Ki at Nociceptin receptor [4] was determined as 2 nM; at Mu-type opioid receptor [5] it was 31 nM. For the same compound, the half-maximal inhibitory concentration (IC50) at Nociceptin receptor [6] is 5.3 nM.
With `O=C1Cc2ccccc2N1C1CCN([C@@H]2CC[C@H]3CCCc4cccc2c43)CC1`, the inhibitory constant (Ki) on Nociceptin receptor [7] was determined as 11 nM; at Mu-type opioid receptor [8], 80 nM. For the same compound, the concentration giving a half-maximal response (EC50) at Nociceptin receptor [9] is 46 nM.
The compound `O=c1n(CC[18F])c2ccccc2n1[C@H]1CCN(C[C@H]2CCCCC23CC3)C[C@@H]1CO` gave an IC50 at Nociceptin receptor [10] of 0.63 nM.
